From ChEMBL document CHEMBL1129649, “A novel series of (phenoxyalkyl)imidazoles as potent H3-receptor histamine antagonists” (J Med Chem, 1996) come the findings set out here.

Chains of the proteins cited; added tags and fusions are not shown. Lines headed by an entry give the natural chain unless they say otherwise; changes in a name come on top.
UniProt Q9QYN8: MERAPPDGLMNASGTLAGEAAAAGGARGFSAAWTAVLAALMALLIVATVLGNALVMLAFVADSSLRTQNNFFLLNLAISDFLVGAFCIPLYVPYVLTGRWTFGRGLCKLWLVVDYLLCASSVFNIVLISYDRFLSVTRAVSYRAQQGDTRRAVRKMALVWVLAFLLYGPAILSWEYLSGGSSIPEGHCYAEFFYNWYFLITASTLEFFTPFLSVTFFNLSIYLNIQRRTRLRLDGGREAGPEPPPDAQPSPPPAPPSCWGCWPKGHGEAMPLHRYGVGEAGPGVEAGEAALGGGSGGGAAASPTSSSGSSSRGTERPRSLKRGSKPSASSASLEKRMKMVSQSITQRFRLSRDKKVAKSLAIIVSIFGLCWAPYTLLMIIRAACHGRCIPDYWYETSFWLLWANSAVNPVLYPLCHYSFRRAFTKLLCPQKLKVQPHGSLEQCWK

For this assay, the target named is Histamine H3 receptor (Rattus norvegicus, UniProt Q9QYN8). The assay is described as follows: Rat Histamine H3 receptor antagonism determined by [K+] - evoked depolarization-induced release of [3H]histamine from rat cerebral cortex synaptosomes. In kind it is functional, subcellular, Brain.

Structures are written as SMILES. pKi: −log10 of the molar value.

`N#Cc1ccccc1OCCc1c[nH]cn1`: the pKi (usually −log10 of the Ki, conventionally taken in molar units) was 6.32.
